Key:
Format in all cases: functional, cell-based
[1] = biological target: 5-hydroxytryptamine receptor 2B (Homo sapiens, UniProt P41595); assay: Agonist activity at human 5HT2B receptor expressed in HEK293 cells assessed as intracellular IP3 accumulation
Procedure, shortened: (§1)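 Functional agonist assay read out as [3H]phosphoinositol turnover; potency expressed as pEC50.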

Amino acid sequences for entries named in this document (tags omitted). A change or cut given only in a name is not applied to a line headed by its entry.
UniProt P41595, whole entry: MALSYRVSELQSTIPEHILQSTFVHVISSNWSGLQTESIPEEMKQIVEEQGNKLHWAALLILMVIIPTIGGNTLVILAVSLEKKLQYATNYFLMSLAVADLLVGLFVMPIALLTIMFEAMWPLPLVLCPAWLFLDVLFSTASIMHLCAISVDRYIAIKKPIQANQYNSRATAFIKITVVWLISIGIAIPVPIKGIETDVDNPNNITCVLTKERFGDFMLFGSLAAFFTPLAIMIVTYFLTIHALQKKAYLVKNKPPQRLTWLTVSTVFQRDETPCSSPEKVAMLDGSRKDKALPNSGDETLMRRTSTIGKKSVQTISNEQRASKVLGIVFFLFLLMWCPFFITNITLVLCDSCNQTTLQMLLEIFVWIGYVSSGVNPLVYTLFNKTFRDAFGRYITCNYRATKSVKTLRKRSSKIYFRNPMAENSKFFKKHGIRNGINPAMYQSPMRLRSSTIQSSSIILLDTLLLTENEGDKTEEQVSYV
UniProt P28335: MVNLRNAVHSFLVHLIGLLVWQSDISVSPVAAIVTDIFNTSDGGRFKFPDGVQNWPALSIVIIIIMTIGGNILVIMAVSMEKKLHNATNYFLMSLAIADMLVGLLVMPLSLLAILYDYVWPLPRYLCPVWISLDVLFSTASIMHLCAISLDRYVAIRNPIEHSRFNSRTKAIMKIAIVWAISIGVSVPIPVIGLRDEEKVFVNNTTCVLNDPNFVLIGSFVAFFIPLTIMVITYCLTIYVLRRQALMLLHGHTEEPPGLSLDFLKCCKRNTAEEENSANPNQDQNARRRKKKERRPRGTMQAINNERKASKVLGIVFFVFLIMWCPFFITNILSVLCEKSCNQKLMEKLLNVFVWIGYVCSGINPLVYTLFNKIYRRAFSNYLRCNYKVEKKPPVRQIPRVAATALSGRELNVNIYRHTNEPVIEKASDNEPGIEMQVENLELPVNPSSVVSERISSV
UniProt P28223, whole entry: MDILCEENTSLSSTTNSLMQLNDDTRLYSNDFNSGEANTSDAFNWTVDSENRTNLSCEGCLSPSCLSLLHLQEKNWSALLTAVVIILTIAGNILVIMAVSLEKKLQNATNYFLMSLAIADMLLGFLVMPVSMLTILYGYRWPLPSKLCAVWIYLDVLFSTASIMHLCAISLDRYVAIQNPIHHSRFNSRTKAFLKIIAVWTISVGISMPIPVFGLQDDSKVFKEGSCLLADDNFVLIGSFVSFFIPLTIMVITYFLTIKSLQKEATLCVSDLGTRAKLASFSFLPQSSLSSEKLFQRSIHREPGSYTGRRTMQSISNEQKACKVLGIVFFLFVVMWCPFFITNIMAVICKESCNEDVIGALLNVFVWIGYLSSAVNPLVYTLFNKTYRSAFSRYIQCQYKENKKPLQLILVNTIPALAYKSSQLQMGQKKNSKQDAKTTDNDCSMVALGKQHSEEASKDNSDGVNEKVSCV

[2] = biological target: 5-hydroxytryptamine receptor 2C (Homo sapiens, UniProt P28335); assay: Agonist activity at human 5HT2C receptor expressed in HEK293 cells assessed as intracellular IP3 accumulation; procedure, shortened: as §1
[3] = biological target: 5-hydroxytryptamine receptor 2A (Homo sapiens, UniProt P28223); assay: Agonist activity at human 5HT2A receptor expressed in HEK293 cells assessed as intracellular IP3 accumulation; procedure, shortened: as §1

Clc1cccc(N2CCNCC2)c1 [CHLOROPHENYLPIPERAZINE]
EC50 [1]: 39.8 nM | EC50 [2]: 7.94 nM | EC50 [3]: 63.1 nM
